The results in this text go back to article PMC5406460 (Frontiers in Microbiology, 2017).

This series can be described thus: in vitro. The note with it: human, HepG2 cells.

SMILES strings stand for the structures. Non-standard residues stand in square brackets, D forms with d. Residues, ends and D or L forms follow the SMILES beside them. ξ: configuration not given here. *: point of attachment. ξF = NC(Cc1ccccc1)C(=O)O; Cbz = O=C(OCc1ccccc1)*; CH2Cl = ClC* Some results are limits rather than exact numbers.

In turn, `CC(C)C[C@H](NC(=O)[C@H](Cc1ccccc1)NC(=O)c1cnccn1)B(O)O` [Pyr-FL-BA, Pyrazine-Phenylalanine-Leucine-Boronic acid] displayed a CC50 of 250 µM.

`O=C(CNC(=O)OCc1ccccc1)NCC(=O)NC(Cc1ccccc1)C(=O)CCl` (stereo not drawn) [Z-GGF-CMK, Carboxybenzyl-glycine-glycine-phenylalanine-CMK] (Cbz-Gly-Gly-[ξF]-CH2Cl) registered a CC50 of 125 µM.

`CC(C)C[C@H](NC(=O)CNC(=O)OCc1ccccc1)C(=O)NC(Cc1ccccc1)C(=O)CCl` (stereo partly drawn) [Z-GLF-CMK, Carboxybenzyl-glycine-leucine-phenylalanine-CMK] (Cbz-Gly-Leu-[ξF]-CH2Cl) registered a CC50 of 60 µM.

`CC(C)C[C@H](NC(=O)[C@H](Cc1ccccc1)NC(=O)c1cnccn1)C(=O)CCl` [Pyr-FL-CMK, N-((S)-1-(((S)-1-chloro-5-methyl-2-oxohexan-3-yl)amino)-1-oxo-3-phenylpropan-2-yl)pyrazine-2-carboxamide] came in with a cytotoxic concentration (CC50) greater than 500 µM.
